Values quoted from earlier work in US5635458A, “Water-based drilling fluids for reduction of water adsorption and hydration of argillaceous rocks” (M-I Drilling Fluids, L.L.C., priority 1995, dated 1997).

Details: in vivo; cited from earlier work

CC(O)COC(C)COC(C)CO (stereo not shown) [Tripropylene Glycol]
single-dose oral LD50: ~ 3 gm/KG
